# Source: patent publication US6875743B1, “Cell adhesion inhibitors” (Biogen, Inc., priority 1996, dated 2005)
# Chains of the proteins cited; added tags and fusions are not shown. Residues count along the entry.
# UniProt P05556, 21-798 limits assumed: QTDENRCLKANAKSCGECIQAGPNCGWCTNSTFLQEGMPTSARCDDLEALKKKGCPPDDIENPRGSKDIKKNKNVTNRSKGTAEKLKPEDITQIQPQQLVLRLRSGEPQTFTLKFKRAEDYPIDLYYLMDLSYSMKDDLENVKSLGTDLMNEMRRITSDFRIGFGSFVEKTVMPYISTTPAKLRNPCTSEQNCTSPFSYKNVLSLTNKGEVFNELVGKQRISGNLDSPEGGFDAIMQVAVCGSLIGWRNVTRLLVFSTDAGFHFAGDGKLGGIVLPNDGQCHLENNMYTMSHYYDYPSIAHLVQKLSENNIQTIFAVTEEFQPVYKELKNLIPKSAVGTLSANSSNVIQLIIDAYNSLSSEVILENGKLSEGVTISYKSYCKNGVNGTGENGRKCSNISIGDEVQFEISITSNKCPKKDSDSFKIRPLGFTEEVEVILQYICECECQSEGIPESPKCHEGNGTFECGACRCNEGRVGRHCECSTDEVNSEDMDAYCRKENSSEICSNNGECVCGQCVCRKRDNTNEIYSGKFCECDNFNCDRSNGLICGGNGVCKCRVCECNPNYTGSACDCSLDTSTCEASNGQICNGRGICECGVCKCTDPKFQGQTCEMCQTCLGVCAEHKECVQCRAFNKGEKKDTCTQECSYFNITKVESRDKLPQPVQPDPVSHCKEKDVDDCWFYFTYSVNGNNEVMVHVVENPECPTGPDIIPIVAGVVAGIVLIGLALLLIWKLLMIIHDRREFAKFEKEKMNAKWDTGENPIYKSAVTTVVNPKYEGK
# UniProt P13612, 34-1032 limits assumed: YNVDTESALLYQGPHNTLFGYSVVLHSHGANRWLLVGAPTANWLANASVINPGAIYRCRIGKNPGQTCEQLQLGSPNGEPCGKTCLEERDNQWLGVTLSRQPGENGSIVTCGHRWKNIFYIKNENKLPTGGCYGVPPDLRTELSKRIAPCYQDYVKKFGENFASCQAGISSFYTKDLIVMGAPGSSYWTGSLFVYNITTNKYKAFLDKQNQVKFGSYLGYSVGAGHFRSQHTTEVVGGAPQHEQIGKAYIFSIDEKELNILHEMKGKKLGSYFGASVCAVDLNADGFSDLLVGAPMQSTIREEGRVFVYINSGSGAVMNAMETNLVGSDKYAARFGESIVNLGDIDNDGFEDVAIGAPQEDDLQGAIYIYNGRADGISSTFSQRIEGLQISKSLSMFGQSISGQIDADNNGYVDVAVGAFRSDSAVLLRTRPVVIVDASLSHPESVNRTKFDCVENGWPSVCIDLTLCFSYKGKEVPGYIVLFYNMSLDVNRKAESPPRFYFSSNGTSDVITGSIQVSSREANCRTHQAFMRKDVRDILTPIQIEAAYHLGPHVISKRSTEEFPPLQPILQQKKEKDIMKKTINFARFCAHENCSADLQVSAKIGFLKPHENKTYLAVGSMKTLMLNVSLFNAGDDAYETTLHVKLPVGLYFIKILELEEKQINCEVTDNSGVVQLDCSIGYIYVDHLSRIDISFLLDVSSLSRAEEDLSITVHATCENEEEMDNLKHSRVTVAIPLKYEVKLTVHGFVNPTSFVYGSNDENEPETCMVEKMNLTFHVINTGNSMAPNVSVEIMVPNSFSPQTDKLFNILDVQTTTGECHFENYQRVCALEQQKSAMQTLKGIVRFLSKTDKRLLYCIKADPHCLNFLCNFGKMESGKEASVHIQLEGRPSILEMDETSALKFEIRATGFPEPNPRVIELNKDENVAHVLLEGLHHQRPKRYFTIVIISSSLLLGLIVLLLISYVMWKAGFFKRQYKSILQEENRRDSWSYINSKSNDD
# Target: VLA4 (Homo sapiens, UniProt P05556+P13612)
# Test: Inhibition of VLA4-dependent adhesion to BSA-CS1
# Assay type: cell-based
# Settings: binding of BCECF-labelled Ramos cells to BSA-CS1 coated wells, 2 mM MnCl2
row,Structure (SMILES),IC50 [µM]
1,COc1nc(CC(=O)N[C@@H](CC(C)C)C(=O)N[C@@H](CC(=O)O)C(=O)N[C@H](C(=O)N2CCC[C@H]2C(N)=O)C(C)C)ccc1NC(=O)Nc1ccccc1C,< 0.05
2,CC(C)C[C@H](NC(=O)Cc1ccccc1)C(=O)N[C@@H](CC(=O)O)C(=O)N1CCCCC1C(=O)NCC(=O)O (stereo partly shown),> 10
3,COc1ccc(CN2CN(C(=O)C(CC(C)C)NC(=O)Cc3ccc(NC(=O)Nc4ccccc4C)cc3)[C@@H](C(=O)O)CC2=O)cc1OC (stereo partly shown),> 10

# The remaining lines, values ahead:
row,IC50 [µM],Structure (SMILES)
1,0.05 to 10,Cc1ccccc1NC(=O)Nc1ccc(CC(=O)NC(CC(C)C)C(=O)N2CN(CC(=O)OCc3ccccc3)C(=O)C[C@H]2C(=O)O)cc1 (stereo partly shown)
2,> 10,CC(C)CCC(=O)N[C@@H](CC(=O)O)C(=O)NCC1CCCCC1
3,0.05 to 10,COc1ccc(CNC(=O)[C@@H]2CC(=O)N(CC(=O)O)CN2C(=O)C(CC(C)C)NC(=O)Cc2ccc(NC(=O)Nc3ccccc3C)cc2)cc1 (stereo partly shown)
4,> 10,COc1ccc(CN2CN(C(=O)C(CC(C)C)NC(=O)Cc3ccc(NC(=O)Nc4ccccc4C)cc3)[C@@H](C(=O)O)CC2=O)cc1 (stereo partly shown)
